# Measurements reported in DBAASP.
# System: Staphylococcus aureus ATCC 12600
# Assay: ≥ marks a high value that may be exact or a test limit, other limits are often not marked, values filed in µg/mL are converted to µM
smiles,measurement,value
CC(C)C[C@H](NC(=O)[C@@H](N)C(C)C)C(=O)N[C@@H](CC(N)=O)C(=O)N[C@@H](CCC(=O)O)C(=O)N[C@@H](CC(N)=O)C(=O)N[C@@H](C)C(=O)N[C@@H](C)C(=O)N[C@@H](CCCN=C(N)N)C(=O)O [VLNENAAR],MIC,≥ 128 µM
